Protein sequences, listed by entry. Tags and fused reporters are not part of them.
UniProt Q16539, whole entry: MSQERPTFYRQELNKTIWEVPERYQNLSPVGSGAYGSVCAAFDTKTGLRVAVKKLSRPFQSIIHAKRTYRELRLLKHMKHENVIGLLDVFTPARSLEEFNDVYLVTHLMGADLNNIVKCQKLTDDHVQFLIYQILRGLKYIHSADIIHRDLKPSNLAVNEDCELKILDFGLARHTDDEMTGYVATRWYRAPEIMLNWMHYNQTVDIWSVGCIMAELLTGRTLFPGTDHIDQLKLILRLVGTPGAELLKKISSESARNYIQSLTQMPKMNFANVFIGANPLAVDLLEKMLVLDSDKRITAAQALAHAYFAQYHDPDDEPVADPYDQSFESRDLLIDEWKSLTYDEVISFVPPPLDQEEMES

The target in one assay is T1, Mitogen-activated protein kinase 14 (Homo sapiens, UniProt Q16539).
Regarding `COc1cc(NC(=O)Nc2cc(C(C)(C)C)nn2-c2ccc(C)cc2)c2ccccc2c1`, the k off was 0.00034 s⁻¹.
On to `Cc1ccc(-n2nc(C(C)(C)CO)cc2NC(=O)Nc2ccc(OCCN3CCOCC3)c3ccccc23)cc1`, for which the k off came to 0.0004 s⁻¹.
Still for that read-out and setting: in the case of `Cc1ccc(-n2nc(C(C)(C)C)cc2NC(=O)Nc2ccc(OCCN3CCOCC3)c3ccccc23)cc1CN(C)C` it was 3.8e-05 s⁻¹.
Still for that read-out and setting: in the case of `CC(C)c1cc(NC(=O)Nc2ccc(OCCN3CCOCC3)c3ccccc23)n(-c2ccccc2)n1` it was 0.00038 s⁻¹; in that of `COc1cc(NC(=O)Nc2cc(C(C)(C)C)nn2-c2ccc(C)cc2)c2ccccc2c1OCCN1CCOCC1`, 0.00015 s⁻¹; in that of `CN(C)Cc1cccc(-n2nc(C(C)(C)C)cc2NC(=O)Nc2ccc(OCCN3CCOCC3)c3ccccc23)c1`, 2.6e-05 s⁻¹.
Turning to `Cc1ccc(-n2nc(C(C)(C)C)cc2NC(=O)Nc2ccccc2)cc1`, the k off was determined as 0.0016 s⁻¹.
For the compound `CC(C)(C)c1cc(NC(=O)Nc2ccc(OCCN3CCOCC3)c3ccccc23)n(-c2ccccc2)n1`, the k off is 1.5e-05 s⁻¹.
For `Cn1nc(C(C)(C)C)cc1NC(=O)Nc1ccc(OCCN2CCOCC2)c2ccccc12`, the k off worked out at 0.0033 s⁻¹.
For `Cc1ccc(-n2nc(C(C)(C)C)cc2NC(=O)Nc2ccc(CCCN3CCOCC3)c3ccccc23)cc1`, the k off came out at 2.3e-05 s⁻¹.
The same measure, in the same setting: with `Cc1ccc(-n2nc(C(C)(C)C)cc2NC(=O)Nc2ccc(OCCN3CCOCC3)c3ccccc23)cn1` the figure was 2.3e-05 s⁻¹; with `Cc1ccc(-n2nc(C(C)(C)C)cc2NC(=O)Nc2cccc3ccccc23)cc1`, 0.00012 s⁻¹.

The target in the next assay is T1, Mitogen-activated protein kinase 14. The source holds these as a separate data set.
`COc1cc(NC(=O)Nc2cc(C(C)(C)C)nn2-c2ccc(C)cc2)c2ccccc2c1` registered a k on of 36100 M⁻¹ s⁻¹.
The same measure, in the same setting: with `Cc1ccc(-n2nc(C(C)(C)CO)cc2NC(=O)Nc2ccc(OCCN3CCOCC3)c3ccccc23)cc1` the figure was 25400 M⁻¹ s⁻¹; with `Cc1ccc(-n2nc(C(C)(C)C)cc2NC(=O)Nc2ccc(OCCN3CCOCC3)c3ccccc23)cc1CN(C)C`, 7900 M⁻¹ s⁻¹; with `CC(C)c1cc(NC(=O)Nc2ccc(OCCN3CCOCC3)c3ccccc23)n(-c2ccccc2)n1`, 64800 M⁻¹ s⁻¹.
`COc1cc(NC(=O)Nc2cc(C(C)(C)C)nn2-c2ccc(C)cc2)c2ccccc2c1OCCN1CCOCC1` displayed a k on of 10700 M⁻¹ s⁻¹.
Same read-out and setting: with `CN(C)Cc1cccc(-n2nc(C(C)(C)C)cc2NC(=O)Nc2ccc(OCCN3CCOCC3)c3ccccc23)c1` the figure was 1600 M⁻¹ s⁻¹.
`Cc1ccc(-n2nc(C(C)(C)C)cc2NC(=O)Nc2ccccc2)cc1` returned a k on of 73300 M⁻¹ s⁻¹.
With `CC(C)(C)c1cc(NC(=O)Nc2ccc(OCCN3CCOCC3)c3ccccc23)n(-c2ccccc2)n1`, the k on was 154000 M⁻¹ s⁻¹.
Still for that read-out and setting: with `Cn1nc(C(C)(C)C)cc1NC(=O)Nc1ccc(OCCN2CCOCC2)c2ccccc12` the figure was 145000 M⁻¹ s⁻¹.
On the same count and under the same terms, in the case of `Cc1ccc(-n2nc(C(C)(C)C)cc2NC(=O)Nc2ccc(CCCN3CCOCC3)c3ccccc23)cc1` it was 18700 M⁻¹ s⁻¹; in that of `Cc1ccc(-n2nc(C(C)(C)C)cc2NC(=O)Nc2ccc(OCCN3CCOCC3)c3ccccc23)cn1`, 21500 M⁻¹ s⁻¹; in that of `Cc1ccc(-n2nc(C(C)(C)C)cc2NC(=O)Nc2cccc3ccccc23)cc1`, 113000 M⁻¹ s⁻¹.

The values are drawn from ChEMBL document CHEMBL1146625, “The kinetics of binding to p38MAP kinase by analogues of BIRB 796” (Bioorg Med Chem Lett, 2003).
